Amino acid sequences for entries named in this document (tags omitted). A change or cut given only in a name is not applied to a line headed by its entry.
UniProt P11229: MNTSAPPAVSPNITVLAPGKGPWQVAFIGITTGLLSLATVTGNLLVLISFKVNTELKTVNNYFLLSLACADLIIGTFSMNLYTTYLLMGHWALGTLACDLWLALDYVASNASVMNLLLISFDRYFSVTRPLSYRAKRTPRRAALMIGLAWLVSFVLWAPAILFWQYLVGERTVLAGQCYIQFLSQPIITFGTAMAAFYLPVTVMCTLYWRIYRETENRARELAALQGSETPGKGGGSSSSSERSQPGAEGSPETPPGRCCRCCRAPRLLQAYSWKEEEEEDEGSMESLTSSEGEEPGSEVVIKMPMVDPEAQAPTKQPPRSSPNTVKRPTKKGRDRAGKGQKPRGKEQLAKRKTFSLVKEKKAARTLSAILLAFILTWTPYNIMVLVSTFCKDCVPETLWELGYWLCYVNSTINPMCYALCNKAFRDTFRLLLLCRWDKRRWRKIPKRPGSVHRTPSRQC

In ChEMBL document CHEMBL2021911 (Bioorg Med Chem Lett, 2012):

Biological target: Muscarinic acetylcholine receptor M1 (Homo sapiens, UniProt P11229)
Assay: Agonist activity at human muscarinic M1 receptor at 30 uM relative to acetylcholine
Assay type: functional

Compound | Activity [%]
O=C(NCCN[C@@H]1C[C@H]2CC[C@@H](C1)N2C(=O)Oc1ccccc1)c1ccccc1 | < 5
CCC(=O)N1[C@@H]2CC[C@H]1C[C@H](NCCNC(=O)c1ccccc1)C2 | < 5
CCS(=O)(=O)N1[C@@H]2CC[C@H]1C[C@H](NCCNC(=O)c1ccccc1)C2 | < 5
CCOC(=O)N1[C@@H]2CC[C@H]1C[C@H](NCCNC(=O)c1ccccc1C(F)(F)F)C2 | < 5
CCOC(=O)N1[C@@H]2CC[C@H]1C[C@H](NCCNC(=O)NC1CC1)C2 | < 5

Other lines, results leading:

Activity [%] | Compound
< 5 | CCCC(=O)N1[C@@H]2CC[C@H]1C[C@H](NCCNC(=O)c1ccccc1)C2
< 5 | CCOC(=O)N1[C@@H]2CC[C@H]1C[C@H](NCCNC(=O)c1ccc[nH]1)C2
< 5 | CCOC(=O)N1[C@@H]2CC[C@H]1C[C@H](NCCNS(=O)(=O)c1cccc(OC)c1)C2
< 5 | CS(=O)(=O)N1[C@@H]2CC[C@H]1C[C@H](NCCNC(=O)c1ccccc1)C2
< 5 | CN(C)C(=O)N1[C@@H]2CC[C@H]1C[C@H](NCCNC(=O)c1ccccc1)C2
